{"source": "patent US9039924B2", "about": "(priority 2010, dated 2015)", "origin": "cited, not measured here", "tested_on": "rat", "conditions": "in vivo; for LD50 values below 1000 or toxic: po"}
{"substance": "ammonium nitrite [NH4NO2]", "values": [{"measurement": "LD50 (oral-rat; mg/kg)", "result": 57, "unit": "mg/kg"}, {"measurement": "LD50 values below 1000 or toxic", "result": "below 1000"}]}
{"substance": "rubidium nitrate [RbNO3]", "values": [{"measurement": "LD50 (oral-rat; mg/kg)", "result": 4625, "unit": "mg/kg"}]}
{"substance": "silver nitrate [AgNO3]", "values": [{"measurement": "LD50 values below 1000 or toxic", "result": "toxic"}]}
